AlphaSeq binding of Ab-14 heavy chain variants to a spike HR2 peptide

All variants were tested on one target, the spike HR2 peptide PDVDLGDISGINAS (SARS-CoV-2).

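Phage display of a naive human antibody library on the peptide gave the parent. The library (AAYL49) carries one to three amino acid substitutions per variant, with no insertions or deletions. In AlphaSeq, yeast of one mating type display the scFv and yeast of the other type display the target. Pairs that bind mate more often; barcode pairs of the diploids are counted by sequencing. Each replicate has its own calibration line, from reference interactions of the BCL2 family. Each pool was mated in three replicate cultures.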

Each scFv is VH, a 15-residue (Gly4Ser)3 linker, VL, as in the parent Ab-14, and differs from it in the CDRs of the heavy chain only.
VH: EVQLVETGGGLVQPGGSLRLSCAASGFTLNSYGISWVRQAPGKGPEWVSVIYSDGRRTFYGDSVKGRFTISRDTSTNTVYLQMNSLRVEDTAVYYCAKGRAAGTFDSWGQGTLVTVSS
VL: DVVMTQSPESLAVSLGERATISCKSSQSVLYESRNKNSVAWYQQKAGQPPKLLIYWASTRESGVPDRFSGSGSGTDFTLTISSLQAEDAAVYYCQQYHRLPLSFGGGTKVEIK

Positions count from residue 1 of the parent VH; D54W puts W in place of D. Every variant below is changed at G61 of the VH (sequential numbering). Kd is apparent (estimated from mating counts) and averaged on the log scale over replicates with a signal. Smaller is tighter. "nd" marks a missing value. The strain was present, yet no cells mated with the target were sequenced in any replicate, which points to weak or no binding. As a blank, each scFv also met three strains without target: over library AAYL49, 15% of these pairings were detected, typically at 11 µM and seldom below 680 nM. For each scFv, signals with the empty controls are counted beside the result. In this assay the parent's reference entry averaged 4.4 nM; its copy inside this library read 13 µM (one replicate of three).

* D54W/F59V/G61T: 61 µM (1 of 3 replicates; controls 4 of 9)
* F27Q/Y52I/G61E: nd (0 of 3 replicates; controls 1 of 9)
* G61R/R100M/T104D: 1.9 µM (1 of 3 replicates; controls 2 of 9)
* G33F/G61H: nd (0 of 3 replicates; controls 0 of 9)
* G61W/V64T/K65D: 300 nM (1 of 3 replicates; controls 0 of 9)
* S35G/V50P/G61V: nd (0 of 3 replicates; controls 0 of 9)
* L29H/S35F/G61S: 3.9 µM (2 of 3 replicates; controls 0 of 9)
* Y52T/G61S/R100C: nd (0 of 3 replicates; controls 1 of 9)
* L29I/G55I/G61V: nd (0 of 3 replicates; controls 0 of 9)
* L29T/G61F/R100Y: 4.5 µM (1 of 3 replicates; controls 1 of 9)
* G61F/V64A/K65G: 7.0 µM (2 of 3 replicates; controls 0 of 9)
* L29S/G61W/K65N: nd (0 of 3 replicates; controls 1 of 9)
* G61W/D62I/D106T: nd (0 of 3 replicates; controls 1 of 9)
* G26N/Y32C/G61A: 2.8 µM (3 of 3 replicates; controls 1 of 9)
* G61T/G103F: 6.3 nM (3 of 3 replicates; controls 3 of 9)
* I34Y/G61E/D62Q: 67 µM (3 of 3 replicates; controls 3 of 9)
* S35H/G61Q/A101L: 1.5 µM (2 of 3 replicates; controls 1 of 9)
* G61Y/R100C: 8.5 µM (1 of 3 replicates; controls 1 of 9)
* R57H/G61C/V64D: nd (0 of 3 replicates; controls 1 of 9)
* G61K/A102C: nd (0 of 3 replicates; controls 0 of 9)
* T58E/G61M: 130 nM (3 of 3 replicates; controls 1 of 9)
* S31G/D54N/G61V: nd (0 of 3 replicates; controls 0 of 9)
* L29E/G61N/T104P: nd (0 of 3 replicates; controls 3 of 9)
* G61A/S63Y/D106S: 800 nM (3 of 3 replicates; controls 3 of 9)
* G61I/D106S: 5.7 nM (3 of 3 replicates; controls 1 of 9)
* T28L/G61D: 13 nM (3 of 3 replicates; controls 2 of 9)
* L29N/G61P/A101I: 2.0 µM (2 of 3 replicates; controls 1 of 9)
* R56N/R57C/G61T: nd (0 of 3 replicates; controls 0 of 9)
* G33W/V50E/G61W: 5.1 µM (1 of 3 replicates; controls 3 of 9)
* S53G/G61S/S107I: 20 nM (3 of 3 replicates; controls 0 of 9)
* G55C/G61L/V64H: 24 µM (2 of 3 replicates; controls 2 of 9)
* G61M/S63K/G99P: 57 nM (3 of 3 replicates; controls 0 of 9)
* Y32L/G33M/G61L: 8.3 µM (3 of 3 replicates; controls 1 of 9)
* G61I/S63I/V64A: nd (0 of 3 replicates; controls 0 of 9)
* T28V/G61N/D106T: 5.0 µM (1 of 3 replicates; controls 3 of 9)
* S35I/G61H/V64Q: 73 µM (2 of 3 replicates; controls 5 of 9)

The opening 5 entries, copied out:

| changes | apparent Kd | detected | empty controls |
|---|---|---|---|
| D54W/F59V/G61T | 61 µM | 1/3 | 4/9 |
| F27Q/Y52I/G61E | nd | 0/3 | 1/9 |
| G61R/R100M/T104D | 1.9 µM | 1/3 | 2/9 |
| G33F/G61H | nd | 0/3 | 0/9 |
| G61W/V64T/K65D | 300 nM | 1/3 | 0/9 |

The measurements come from Engelhart et al. 2022 (doi:10.1038/s41597-022-01779-4) through the FLAb antibody collection.